Here are results for five compounds from paper PMC8950700 (Pharmaceuticals, 2022).

A short description of this data set: In vivo safety study in mice (liver and kidney function, body weight). Conditions: uninfected mice; compounds given as 3 doses, oseltamivir 50 mg/kg, zanamivir 20 mg/kg; vs 1X PBS.

As for `CC(=O)OC[C@H]1O[C@@H](OCc2cn(Cc3nc4ccccc4o3)nn2)[C@H](OC(C)=O)[C@@H](OC(C)=O)[C@H]1OC(C)=O` [Compound 8b, (2R,3S,4S,5R,6R)-2-(Acetoxymethyl)-6-((1-(benzo[d]oxazol-2-ylmethyl)-1H-1,2,3-triazol-4-yl)methoxy)tetrahydro-2H-pyran-3,4,5-triyl Triacetate], the “effect on body weight (safety, Figure S2)” value (shortened to “effect on body weight”) is recorded as “slight effect on body weight”.

For `CC(=O)O[C@@H]1[C@@H](OC(C)=O)[C@H](OCc2cn(Cc3nc4ccccc4[nH]3)nn2)OC[C@H]1OC(C)=O` [Compound 9a, (2R,3R,4S,5R,)-2-((1-((1H-Benzo[d]imidazol-2-yl)methyl)-1H-1,2,3-triazol-4-yl)methoxy)tetrahydro-2H-pyran-3,4,5-triyl Triacetate], the “effect on body weight” value was “did not affect body weight”.

Take `CC(=O)O[C@@H]1[C@@H](OC(C)=O)[C@H](OCc2cn(Cc3nc4ccccc4s3)nn2)OC[C@H]1OC(C)=O` [Compound 9c, (2R,3R,4S,5R)-2-((1-(Benzo[d]thiazol-2-ylmethyl)-1H-1,2,3-triazol-4-yl)methoxy)tetrahydro-2H-pyran-3,4,5-triyl Triacetate]: the “effect on body weight” value is given as “did not affect body weight”. The result for `CCOC(=O)C1=C[C@H](N)C(NC(C)=O)[C@H](OC(CC)CC)C1` (some centres unmarked) [oseltamivir, reference compound] reads “slight effect on body weight”; that for `CC(=O)N[C@H]1[C@H]([C@H](O)[C@H](O)CO)OC(C(=O)O)=C[C@@H]1N=C(N)N` [zanamivir, reference compound], “did not affect body weight”.
